In article PMC6338342 (Journal of chromatography. B, Analytical technologies in …, 2016):

[1] = rat serum, oral XLGB extract 3 g/kg, n = 6
[2] = rat serum, oral XLGB extract 6 g/kg, n = 6
[3] = rat serum, oral XLGB extract 12 g/kg, n = 6

O=c1ccc2cc3ccoc3cc2o1 [Psoralen, psoralen]
Tmax (male, Sprague-Dawley, rat, serum, po, 12 g/kg): 1.83 ± 0.41 h

icariside II
serum concentration (analytical signal) relative to LLOQ (rat serum, oral XLGB 3 g/kg): slightly higher than the corresponding LLOQs
AUC0-t [1]: 5.52 ± 3.08 ng·h/mL
AUC0–∞ [1]: 17.00 ± 9.29 ng·h/mL
Cmax [1]: 3.74 ± 0.85 ng/mL
MRT0–t [1]: 2.40 ± 1.54 h
MRT0–∞ [1]: 16.51 ± 12.48 h
Tmax [1]: 0.50 ± 0 h
t1/2 [1]: 12.23 ± 9.22 h
AUC0-t [2]: 85.46 ± 15.26 ng·h/mL
AUC0–∞ [2]: 94.10 ± 16.91 ng·h/mL
Cmax [2]: 23.64 ± 2.84 ng/mL
MRT0–t [2]: 6.45 ± 3.98 h
MRT0–∞ [2]: 10.51 ± 6.10 h
Tmax [2]: 0.67 ± 0.41 h
t1/2 [2]: 9.93 ± 8.71 h
AUC0-t [3]: 280.72 ± 40.81 ng·h/mL
AUC0–∞ [3]: 293.14 ± 38.79 ng·h/mL
Cmax [3]: 68.11 ± 12.99 ng/mL
MRT0–t [3]: 5.33 ± 0.84 h
MRT0–∞ [3]: 7.36 ± 1.41 h
Tmax [3]: 1.83 ± 0.26 h
t1/2 [3]: 9.90 ± 5.47 h

Where two headings read alike, the source gives them in different places.
